PubChem BioAssay AID652104 (National Center for Advancing Translational Sciences (NCATS), 2013)
This is a selection; strong and weak results do not stand in their true shares. Inconclusive results are not listed. A call without a number means that no potency is given here. Activity calls are given as the source filed them. The call rests on the fitted dose curve; in most records, active means well fitted activation curve with a large enough effect; inconclusive means small, poorly fitted or top-dose-only effect, or another doubt; inactive means no such curve, though single readings can be large or run the other way.

assay: qHTS of TDP-43 Inhibitors; conditions: TDP-43 expressing yeast growth rescue, BacTiter-Glo, 24 h; series mostly up to 46.1 µM; further: nearly all actives have a fitted effect of over 50% in size
Potency means the concentration at half of the fitted maximal effect.

Compound	growth rescue (activation)	Potency
CC(C)(C)C(=O)NC(Sc1ccccc1)C(Cl)(Cl)Cl (stereo not drawn)	inactive	–
CCc1cc(O)c([N+](=O)[O-])c(C)c1[N+](=O)[O-]	inactive	–
Nc1cccc2c([As](=O)(O)O)cccc12	inactive	–
Cc1ccc(NCCc2c([N+](=O)[O-])cc([N+](=O)[O-])cc2[N+](=O)[O-])cc1	inactive	–
CCCOP(=S)(Nc1nc(N)cc(=O)[nH]1)OCCC	inactive	–
COc1cc(C2NCCC3(OCCO3)C2(C)C)cc(OC)c1OC (stereo not drawn)	inactive	–
CCOP(=O)(Nc1cccc2ccccc12)OCC	inactive	–
O=C(OC1CN2CCC1CC2)c1ccc(Cl)cc1 (stereo not drawn)	inactive: -3.52% [at 1.82 µM]	–
COc1cc(C(=O)NCC2(N3CCOCC3)CCCCC2)cc(Cl)c1OC(C)C	inactive	–
O=[As](O)(O)c1cccnc1	inactive	–
CS(=O)(=O)c1ccc(Cl)c(NC(=O)COC(=O)C(O)(c2ccccc2)c2ccccc2)c1	inactive	–
O=[As](O)(c1cccc(O)c1)c1cccc(O)c1	inactive	–
Cc1cccc(OCC(=O)OC2CN3CCC2CC3)c1 (stereo not drawn)	inactive	–
NC(=O)Nc1ccc([As](=O)(O)O)cc1	inactive	–
N#CCCN(C(=O)COC(=O)C(O)(c1ccccc1)c1ccccc1)c1ccc(F)cc1	inactive	–
CN(C(=O)Cc1ccccc1)[C@@H]1CC[C@]2(CCCO2)C[C@H]1N1CCCC1	inactive	–
CCOP1(=S)c2c(C)nn(CCC#N)c2N=C(c2ccc(F)cc2)N1C (stereo not drawn)	inactive	–
CN(C)C(=O)c1cc([N+](=O)[O-])cc2c1-c1c(cc([N+](=O)[O-])cc1[N+](=O)[O-])C2=O	inactive	–
O=[N+]([O-])c1ccc2c(c1)nnn2O	inactive	–
CN(C(=O)Cc1ccc(Cl)c(Cl)c1)[C@H]1CC[C@@]2(CCCO2)C[C@@H]1N1CCCC1	inactive	–
CCOP1(=S)c2c(C)nn(CCC#N)c2N=C(c2ccccc2F)N1C (stereo not drawn)	inactive	–
O=P(Nc1nccs1)(c1ccccc1)c1nc2ccccc2s1 (stereo not drawn)	inactive	–

Compound	growth rescue (activation)	Potency
O=P(Nc1nccs1)(Oc1ccccc1)Oc1ccccc1	inactive	–
CS(=O)(=O)c1cc([N+](=O)[O-])c2no[n+]([O-])c2c1	inactive	–
O=C(O)COc1ccc([As](=O)(O)O)cc1[N+](=O)[O-]	inactive	–
Nc1ccccc1[As](=O)(O)c1ccccc1	inactive	–
Cc1ccc(S(=O)(=O)N(CCCN)CCCc2c(C)nc(N)[nH]c2=O)cc1	inactive	–
O=P1(Nc2ncccn2)COc2ccccc2OC1	inactive	–
Nc1cccc([As](=O)(O)c2ccccc2)c1	inactive	–
NS(=O)(=O)c1cccc(NC(=O)COC(=O)C(O)(c2ccccc2)c2ccccc2)c1	inactive	–
O=P1(Nc2ccc(Br)cn2)COc2ccccc2OC1	inactive	–
O=[As](O)(c1cccs1)c1cccs1	inactive	–
Cc1ccc(OCC(=O)OC2CN3CCC2CC3)cc1 (stereo not drawn)	inactive	–
Cc1nn(-c2ccccc2)c2c1P(=O)(N1CCOCC1)N(C)C(c1ccccc1)=N2 (stereo not drawn)	inactive	–
Cc1ccc(C(=O)OC2CN3CCC2CC3)cc1 (stereo not drawn)	inactive	–
CC1CCC(C(C)C)C(OP(=O)(Nc2ccccn2)c2ccccc2)C1 (stereo not drawn)	inactive	–
CN(C)C1(CNC(=O)c2ccc(S(C)(=O)=O)cc2)CCCCC1	inactive	–
O=C(/C=C/c1ccccc1)OC1CN2CCC1CC2 (stereo not drawn)	inactive	–
CCCC1OP(=O)(Nc2ccccc2)OCC1CC (stereo not drawn)	inactive	–
COc1ccccc1CNC(=O)COC(=O)C(O)(c1ccccc1)c1ccccc1	inactive	–
CN(C(=O)Cc1ccc(Cl)c(Cl)c1)[C@@H]1CCCC[C@H]1N1CCCC1	inactive	–
CC(C)/C=N\N=C(\N)N[N+](=O)[O-]	inactive	–
CC1(CBr)Cn2c(nc3ccccc3c2=O)S1 (stereo not drawn)	inactive	–
CCC1=CC2Cc3nc4ccc(Cl)cc4c(N)c3C(C1)C2 (stereo not drawn)	inactive	–

Compound	growth rescue (activation)	Potency
O=P1(Nc2ccccn2)COc2ccccc2OC1	inactive	–
CCOP(=O)(NC(=NC(C)c1ccccc1)NC(C)c1ccccc1)OCC (stereo not drawn)	inactive	–
CN(CCCl)Cc1cc(Cl)c(NC2=NCCN2)c(Cl)c1	inactive	–
CCOP(=O)(Nc1ccc(C)cn1)OCC	inactive	–
Clc1n[nH]nc1-c1nn[nH][15n]1	inactive	–
O=P1(N(CCCl)CCCl)NCCC(C(F)(F)F)O1 (stereo not drawn)	inactive	–
CC(C)(C)C(=O)NC(Sc1ncccn1)C(Cl)(Cl)Cl (stereo not drawn)	inactive	–
O=C(OC1CN2CCC1CC2)c1cccc([N+](=O)[O-])c1 (stereo not drawn)	inactive	–
CCOC(=O)c1ccc(NC(=O)C(C)(CCl)SC)cc1 (stereo not drawn)	inactive	–
CCC(C)N(CC(C)C)C(=S)SC(NC(C)=O)C(Cl)(Cl)Cl (stereo not drawn)	inactive	–
COP1(=S)c2c(C)nn(CCC#N)c2N=C(c2ccc(F)cc2)N1C (stereo not drawn)	inactive	–
COC(=O)C1(C)COP(=O)(N2CCCC2)OC1 (stereo not drawn)	inactive	–
O=C(O)C(=O)c1ccc(N(CCCl)CCCl)cc1	inactive	–
O=C(COc1ccccc1)OC1CN2CCC1CC2 (stereo not drawn)	inactive	–
CCOC(=O)Nc1cccc([As](=O)(O)O)c1	inactive	–
Cc1cc(SC(NC=O)C(Cl)(Cl)Cl)ncn1 (stereo not drawn)	inactive	–
O=P(Nc1ccccn1)(c1cccc2ccccc12)c1cccc2ccccc12	inactive	–
O=[N+]([O-])c1ccc(Nc2ccc(Oc3ccc([N+](=O)[O-])cc3[N+](=O)[O-])cc2)c([N+](=O)[O-])c1	inactive	–
O=C(O)C(O)c1ccc(N(CCCl)CCCl)cc1 (stereo not drawn)	inactive	–
CCOC(=O)Nc1ccc([As](=O)(O)O)c(O)c1	inactive	–
CC1CCNP(=O)(N(CCCl)CCCl)O1 (stereo not drawn)	inactive	–
COP(=O)(OC)N1CC1c1ccccc1 (stereo not drawn)	inactive	–

Compound	growth rescue (activation)	Potency
CCCCOc1ccc(C(=O)NCC2(N3CCCCC3)CCCCC2)cc1OC	inactive	–
ClCCSc1nnc(-c2cccnc2)o1	inactive	–
CC(C)c1ccc(OP(=O)(Nc2ccccn2)Oc2ccccc2F)cc1 (stereo not drawn)	inactive	–
COC(=O)C1(C)COP(=O)(N2CCCCCC2)OC1 (stereo not drawn)	inactive	–
O=C(OC1CN2CCC1CC2)c1cccc2[nH]cnc12 (stereo not drawn)	inactive	–
CCN(CC)C(=S)SC(NC=O)C(Cl)(Cl)Cl (stereo not drawn)	inactive	–
CC(C)NC(=O)NP(=O)(Oc1ccccc1)Oc1ccccc1	inactive	–
O=[N+]([O-])c1cc([N+](=O)[O-])c(-c2ccn[nH]2)s1	–	active: 15.8 µM
C[As](=O)(O)c1cccc(C(=O)O)c1	inactive	–
O=[As](O)(c1ccc(O)cc1)c1ccccc1O	inactive	–
COc1cc(C(=O)NCC2(N3CCOCC3)CCCCC2)ccc1OCC(C)C	inactive	–
O=[N+]([O-])c1ccc(-c2cc([N+](=O)[O-])c(O)c([N+](=O)[O-])c2)cc1	inactive	–
Cc1ccc(OP(=O)(Nc2ccc([N+](=O)[O-])cn2)Oc2ccc(C)cc2)cc1	inactive	–
Cc1ccc2nc3c(c(C)c2c1)CC(C(Cl)Cl)S3 (stereo not drawn)	inactive	–
O=[N+]([O-])c1cc(Oc2ccc([N+](=O)[O-])cc2C(F)(F)F)cc([N+](=O)[O-])c1	–	active: 12.6 µM
COc1ccc(N/C(=N/P(=O)(N2CCOCC2)N2CCOCC2)N2CCOCC2)cc1	inactive	–
O=C(OC1CN2CCC1CC2)C12CC3CC(CC(C3)C1)C2 (stereo not drawn)	inactive	–
Cc1cc(=O)[nH]c(N[N+](=O)[O-])n1	inactive: -3.99% [at 0.397 µM]	–
O=P1(N(CCCl)CCCl)OCCCN1CCCl (stereo not drawn)	inactive	–
O=P1(N(CCCl)CCCl)Nc2ccccc2N1	inactive	–
COc1ccc2nc(NP(=O)(c3ccccc3)c3ccccc3)sc2c1	inactive	–
COc1cc(I)ccc1[As](=O)(O)O	inactive	–
